In one series the test system is OVCAR-4. The experiment in a line: NCI sulforhodamine B assay. Format: cell-based. As to conditions: Homo sapiens, OVCAR-4, OVCAR-4; read-out: Log10 GI50 (converted). As to the method:
(§1) These assays were carried out at the Developmental Therapeutics Program, Division of Cancer Treatment, National Cancer Institute (Bethesda, Md., U.S.A.). The method consists of incubating varying concentrations of the drug with an inoculum of cells for two days. […] The 57 cell lines included two mouse leukemia lines (P388 parental and adriamycin resistant) and […] human cell lines.
(§2) It should be noted that the first two parameters (GI50 and TGI) relate to antiproliferation effects while the third one (LC50) indicates true cytotoxicity. A value of -4 or greater is considered to denote resistance (inactivity).

Another series has as its system NCl-H23. Put plainly: NCI sulforhodamine B assay. Format: cell-based. As to conditions: Homo sapiens, read-out: Log10 GI50 (converted). How it is done:
as §1, §2

The subject of another series is HT29. The experiment in a line: Soft agar colony formation disk diffusion assay. Format: cell-based, human. The following applies: 100 μg/DISK. From the text:
A more elaborate version of this fundamental assay, the soft agar colony formation disk diffusion assay was used. This assay defines the relative activity of one particular drug versus a tumoral cell line type. The effect of the test drug against tumoral cells could be measured by its inhibitory capacity against colony formation after the delivery of the compound, in different concentrations on an filter disk(4). A modified technique of this assay was used in order to investigate the antiproliferative activity of candidate compounds. Tumoral cells from solid tumors and ascitic lines were plated separately in a two layer agar matrix. Cell lines to be tested were suspended in an upper layer of 0.4% Noble agar (Difco#00142-01) in RPMI-1066 (Gibco#3201875) at a yield varying between 10^4 to 2×10^5 cells per 60 mm Petri dish. Plating efficiency was determined for each line in order to achieve an optimal number of colonies per dish. Plates were examined before drug administration to confirm a uniform dispersion of single cells. The bottom layer consisted of 0.8% Noble agar, 0.8% Tryptic Soy Broth (difco#0037001)in CMRL-1066/Fischer's. The bottom layers were used within 2 and 9 days of preparation. […]

The test system of another series is CNS. The experiment in a line: NCI assay, average per cancer type. As to conditions: 2880 min.

`COC(=O)C1CC2=C(C(=O)c3c(cc4ccccc4c3O)C2=O)C(O[C@H]2C[C@H](NC(=O)C(F)(F)F)[C@H](O)[C@H](C)O2)O1` (mixture of isomers) [BCH-242, (1'S,1R,3S) and (1'S, 1S,3R)-Methyl[11-hydroxy-1-2',3',6'-trideoxy-3-trifluroacetamido-L-lyxohexopyranose)-5,12-dioxo-3,4,5,12-tetrahydroanthraceno[2,3-c]pyran-3-yl]formate]: the GI50 in the series with OVCAR-4 and with NCl-H23 was 1820 nM throughout. As to `COC(=O)[C@H]1CC2=C(C(=O)c3c(cc4ccccc4c3O)C2=O)[C@H](O[C@H]2C[C@H](NC(=O)C(F)(F)F)[C@H](O)[C@H](C)O2)O1` (mixture of isomers) [BCH-692, (1'S,1S,3R) and (1'S,1R,3S) Methyl[11-hydroxy-1-(2',3',6'-trideoxy-3'-trifluoroacetamido-4'-hydroxy-L-lyxohexopyranose)-5,12-dioxo-3,4,5,12-tetrahydro-anthraceno[2,3-c]pyran-3-yl]formate], the zone of inhibition with HT29 was 181.5 ± 2.1 Zone Units. For `COc1cccc2c1C(=O)c1c(O)c3c(c(O)c1C2=O)C[C@@](O)(C(=O)CO)C[C@@H]3O[C@H]1C[C@H](N)[C@H](O)[C@H](C)O1` [ADR, reference compound], the “Average LOG10 LC50” value in the series on CNS was -5.03 ± 0.35 log molar.

Values taken from patent US5593970A, “Heterocyclic anthracycline analogs” (priority 1994, dated 1997).
